Data on 1 compound can be found in patent publication US20100080855A1, “HEDGEHOG SIGNALING AND CANCER STEM CELLS IN HEMATOPOIETIC CELL MALIGNANCIES” (THE BOARD OF TRUSTEES OF THE LELAND STANFORD JUNIOR …, priority 2008, published 2010).

One assay deals with BCR-ABL1 driven leukemia. Particulars: after seven weeks; 25 mg/kg cyclopamine by oral gavage; 100% of control animals succumbed over four weeks.
Assay [1] relates to bone marrow KLSF cells infected with BCR-ABL T315I. Particulars: mutant BCR-ABL T315I; cyclopamine 3 μM; colonies counted days 8-10. The text has this:
(§1) Colonies were counted 8-10 days after plating. For the serial replating assay, cells were harvested and counted and 10,000 cells were replated into 12-well plates.
(§2) Additional details concerning the experiment results shown in FIG. 5 are as described here. […] Colonies were counted after 7-10 days. […] Colony numbers were counted on days 8-10. The graph shown is representative of two independent experiments. Error bars show s.e.m.

Assay [2] deals with bone marrow KLSF cells infected with wild type BCR-ABL.
Excerpt: as §1, §2

In the case of `CC1=C2C[C@H]3[C@@H](CC=C4C[C@@H](O)CC[C@@]43C)[C@@H]2CC[C@]12O[C@@H]1C[C@H](C)CN[C@H]1[C@H]2C` [cyclopamine], the mice still alive in the assay on BCR-ABL1 driven leukemia is reported as 40%. For the same compound, the “reduction of growth (colony formation)” value in assay [1] worked out at 6 fold; in assay [2] (control (wild type) BCR-ABL1, cyclopamine 3 μM, colonies counted days 8-10), 6 fold. Besides, in assay [2] (wild type BCR-ABL, 600 GFP positive cells, imatinib 2 μM or cyclopamine 3 μM, days 8-10), the “growth / colony number, result in words” value was “decreases colony formation”.
